System: AF64A-treated rats
Test: Active avoidance test in two-chamber shuttle box (Example 5)
Assay type: in vivo, rat
Conditions: AF64A alone 3 nmol/3 μl i.c.v., solvent orally; mean ± SEM

Substance: ethylcholine aziridinium ion
- Correct responses, % Learning test: 37.4 ± 9.8%
- Correct responses, % Retention test: 43.8 ± 8.1%
